Values quoted from earlier work in patent US9216962B2 (priority 2011, dated 2015).

Assays:
TNF-alpha = details: in vivo; cited from earlier work
[1] = system: breast cancer cells (MDA-MB-231) and fibroblast osteosarcoma cells (U2OS); details: cited from earlier work

Row | Compound | expression of TNF-alpha (TNF-alpha) | effect on normal cells [1]
1 | phenyl butyric acid | inhibit expression of TNF-alpha | 
2 | CCCCCCCC(=O)SCC/C=C/[C@@H]1CC(=O)NCc2nc(cs2)C2=N[C@@](C)(CS2)C(=O)N[C@@H](C(C)C)C(=O)O1 [largazole] |  | less effect
